From article PMC4078735 (2013)
Counter-ions that a name gives are not always drawn.

Conditions: PAMPA

SMILES: CN1CC[C@]23c4c5ccc(O)c4O[C@H]2[C@@H](O)C=C[C@H]3[C@H]1C5 [Morphine, morphine sulfate]
- Ability to cross the dodecane barrier: unable to cross the barrier
